Test results published in patent US20250281513A1, “USE OF PSYCHEDELICS TO TREAT DEMENTIA” (priority 2021, published 2025).

The chains behind the UniProt entries cited, without tags or fusion partners. Where a name states a change or a piece, a line headed by the entry shows the natural chain unless it says otherwise.
UniProt P05067: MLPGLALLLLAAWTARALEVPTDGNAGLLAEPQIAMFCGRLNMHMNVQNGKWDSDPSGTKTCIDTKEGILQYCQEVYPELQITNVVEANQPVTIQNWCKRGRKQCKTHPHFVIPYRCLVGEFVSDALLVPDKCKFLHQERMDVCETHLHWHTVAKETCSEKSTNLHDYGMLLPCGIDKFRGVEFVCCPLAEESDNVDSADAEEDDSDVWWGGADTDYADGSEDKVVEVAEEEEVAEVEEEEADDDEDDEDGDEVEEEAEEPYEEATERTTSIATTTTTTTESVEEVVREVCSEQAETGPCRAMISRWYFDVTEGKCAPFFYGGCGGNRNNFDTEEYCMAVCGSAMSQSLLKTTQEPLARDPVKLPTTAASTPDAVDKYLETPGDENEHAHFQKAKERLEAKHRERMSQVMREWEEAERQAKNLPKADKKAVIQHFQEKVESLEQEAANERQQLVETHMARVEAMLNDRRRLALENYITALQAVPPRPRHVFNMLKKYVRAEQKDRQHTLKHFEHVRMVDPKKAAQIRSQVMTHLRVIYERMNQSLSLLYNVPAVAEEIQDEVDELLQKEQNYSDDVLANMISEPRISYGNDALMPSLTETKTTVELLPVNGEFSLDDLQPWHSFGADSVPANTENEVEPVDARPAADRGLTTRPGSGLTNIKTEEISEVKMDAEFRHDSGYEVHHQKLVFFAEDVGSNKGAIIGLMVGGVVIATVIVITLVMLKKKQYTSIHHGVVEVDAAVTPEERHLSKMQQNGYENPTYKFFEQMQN

How the values were obtained:
Assay type in all cases: cell-based, murine
[1] = tested on: Hypoxia-inducible factor 1-alpha (Hif1-α); assay: qRT-PCR expression of Hif-α in RAW264.7 cells post soluble amyloid beta treatment (Example 3); conditions: RAW cells, 10 uM, 24 hours
Method: (§1) • 1. Macrophage cell line RAW264.7 (ATCC) were grown to 80% confluency in growth media DMEM+10% FBS+glutamine) • 2. Confluent cells were treated with 10 uM of soluble amyloid beta (Aβ 1-16) for 2 hours and for 24 hours. Post treatment the cells were washed with PBS and cells were collected for RNA isolation followed by qRT-PCR to assess for expression levels of proteins involved in AD pathology; Hypoxia-inducible factor 1-alpha (Hif1-α), Melanotransferrin (p97), Tau protein (tau), 5-Hydroxytryptamine Receptor 2A (HTR2A), ATP Binding Cassette Subfamily F Member 1 (ABCF1) Analysis by qPCR:
(§2) • 1. Post treatment with amyloid beta at different time points, the reaction was stopped by removing the media with the drug. Cells were then collected and RNA was isolated from these • 2. After checking the quality of the RNA, cDNA was generated and qPCR was run with different target primers and GAPDH as the house keeping gene • 3. Normalized against the expression level of GAPDH, and further normalized against the expression level of untreated cells, the fold change expression level of different target genes was calculated and tabulated for all conditions.

[2] = tested on: 5-Hydroxytryptamine Receptor 2A (HTR2A); assay: qRT-PCR expression of HTR2A in RAW264.7 cells post soluble amyloid beta treatment (Example 3); conditions: RAW cells, 10 uM
Method: as §1, §2

[3] = tested on: ATP Binding Cassette Subfamily F Member 1 (ABCF1); assay: qRT-PCR expression of ABCF1 in RAW264.7 cells post Aβ 1-16 or psychedelics (Example 4); conditions: RAW cells, 10 uM, 2 hours (FIG. 8)
Method: (§3) • 1. Macrophage cell line RAW264.7 (ATCC) were grown to 80% confluency in growth media (DMEM+10% FBS+glutamine). • 2. Confluent cells were treated with 10 uM of soluble amyloid beta (Aβ 1-16) for 2 hours or psychedelics at the prescribed concentrations at 2 hours post-stimulation or 24 or after restimualtion at 26 hours. Post treatment the cells were washed with PBS and cells were collected for RNA isolation followed by qRT-PCR to assess for expression levels of proteins involved in AD pathology; Hypoxia-inducible factor 1-alpha (Hif1-α), ATP Binding Cassette Subfamily F Member 1 (ABCF1). Analysis by qPCR: • 3. Post treatment with amyloid beta at different time points, the reaction was stopped by removing the media with the drug. Cells were then collected and RNA was isolated from these cells. • 4. After checking the quality of the RNA, cDNA was generated and qPCR was run with different target primers and GAPDH as the house keeping gene • 5. Normalized against the expression level of GAPDH, and further normalized against the expression level of untreated cells, the fold change expression level of different target genes was calculated and tabulated for all conditions.

[4] = tested on: Tau protein (tau); assay: qRT-PCR expression of Tau in RAW264.7 cells post soluble amyloid beta treatment (Example 3); conditions: RAW cells, 10 uM
Method: as §1, §2

[5] = tested on: ATP Binding Cassette Subfamily F Member 1 (ABCF1); assay: qRT-PCR expression of ABCF1 in RAW264.7 cells post soluble amyloid beta treatment (Example 3); conditions: RAW cells, 10 uM
Method: as §1, §2

[6] = tested on: Melanotransferrin (p97); assay: qRT-PCR expression of p97 in RAW264.7 cells post soluble amyloid beta treatment (Example 3); conditions: RAW cells, 10 uM, 2 hours
Method: as §1, §2

[7] = tested on: Hypoxia-inducible factor 1-alpha (Hif1-α); assay: qRT-PCR expression of Hif-α in RAW264.7 cells post Aβ 1-16 or psychedelics (Example 4); conditions: RAW cells, 10 uM, 2 hours (FIG. 8)
Method: as §3

## Aβ 1-16: soluble amyloid beta (Aβ 1-16) used to treat RAW264.7 cells (DAEFRHDSGYEVHHQK; Amyloid-beta protein 42; UniProt P05067 672-687, looked up, fragment)
[1]
  Hif-α expression compared to untreated cells: upregulation
[2]; 2 hours
  HTR2A expression compared to untreated cells: upregulation
[2]; 24 hours
  HTR2A expression compared to untreated cells: downregulation
[3]
  ABCF1 expression compared to untreated cells: upregulation
[4]; 2 hours
  Tau expression compared to untreated cells: upregulation
[4]; 24 hours
  Tau expression compared to untreated cells: upregulation
[5]; 2-hour treatment
  ABCF1 fold change expression compared to untreated cells: more than two folds
[5]; 24-hour treatment
  ABCF1 expression level at 24 hours compared to the 2 hour timepoint: falls by half
[5]; 2 hours
  ABCF1 expression compared to untreated cells: upregulation
[5]; 24 hours
  ABCF1 expression compared to untreated cells: upregulation
[6]
  p97 expression compared to untreated cells: upregulation
[7]
  HIF-alpha expression compared to untreated cells: upregulation
